Test results as given in EP4847496A1, “RING-SUBSTITUTED AMIDE COMPOUNDS, COMPOSITION AND USE THEREOF” (dated 2026).

The chains behind the UniProt entries cited, without tags or fusion partners. Residues count along the entry.
UniProt Q8NI77, 1-376 limits assumed: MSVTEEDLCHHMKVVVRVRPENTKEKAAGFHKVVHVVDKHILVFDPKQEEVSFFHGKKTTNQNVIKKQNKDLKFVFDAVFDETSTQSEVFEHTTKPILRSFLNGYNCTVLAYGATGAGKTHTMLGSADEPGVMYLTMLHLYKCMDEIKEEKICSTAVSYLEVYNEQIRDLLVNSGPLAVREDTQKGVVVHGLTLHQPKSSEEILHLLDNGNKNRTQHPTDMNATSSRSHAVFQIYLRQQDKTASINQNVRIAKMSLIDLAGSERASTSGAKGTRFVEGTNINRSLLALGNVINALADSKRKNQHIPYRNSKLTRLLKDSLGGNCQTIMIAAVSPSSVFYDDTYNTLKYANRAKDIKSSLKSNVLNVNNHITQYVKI

Legend:
[1] = target: Human KIF18A (1-376aa) (Homo sapiens, UniProt Q8NI77); assay: KIF18A enzyme activity assay (ADP-Glo Kinase Assay); details: read-out: KIF18A inhibitory activity IC50, numeric value, ATP 70 µM, microtubule 50 µg/mL
Procedure: Based on the ADP-Glo™ Kinase Assay, the ADP amount generated in the reaction was determined to reflect the enzyme activity of KIF18A.
Human KIF18A (1-376aa) protease used in the experiments, expressed by Shanghai Panchao Biotechnology Co., Ltd., was stored at -80 °C (no more than 5 freeze-thaw cycles).
The assay kit (ADP-Glo™ Kinase Assay) was purchased from Promega (Cat. No. V9101) and stored at -30 °C. The kit determines the enzyme activity by measuring ADP generated in enzyme reaction. The KIF18A enzyme and ATP generate ADP. The remaining ATP in this reaction is consumed by the ADP-Glo reagent, while the ADP generated by the KIF18A enzyme reaction is converted back to ATP by the assay reagent. The ATP then reacts with luciferin in the presence of Ultra-Glo™ luciferase, producing luminescence. The luminescent signal is positively correlated with the enzyme activity of KIF18A.
Compounds were each subjected to 3-fold serial dilution starting from 10 µM to obtain 10 concentration points. The compounds and pure DMSO (control) were pipetted into wells of a 384-well plate using an Echo instrument, and the total volume of compound and DMSO was 100 nL; sample concentrations of gradient dilution were obtained by the instrument based on different ratios. Preparation of a KIF18A enzyme reaction buffer: […], 10 mM MgCl2, 0.01% Pluronic F-68, 1 µM Taxol, and 50 µg/mL Microtubule. KIF18A and the enzyme reaction buffer were mixed, and then the mixed solution was added to the 384-well plate and incubated at room temperature for 15 min. ATP (Km 70 µM) was then added to the mixed solution, and the mixed solution was incubated at room temperature for 15 min. 10 µL of ADP-Glo™ Reagent was well mixed with 10 µL of the mixed solution, and the mixture was incubated at room temperature for 40 min. Finally, 20 µL of ADP-Glo™ Detection Reagent was added, and the mixture was incubated at room temperature for 30 min. The chemiluminescent signal in each well was measured using an Envision plate reader (PerkinElmer, emission wavelength: 400-700 nm). In the experiment, 1 column of wells with no compound and no enzyme (chemiluminescence value was taken as [RLU]background) and 1 column of wells with enzyme but no compound (chemiluminescence value was taken as [RLU]enzyme) were provided. The chemiluminescence value of the compound adding group was taken as [RLU]cpd. The inhibition rate of the compound on proliferation was calculated according to the following equation: inhibition rate (%) = ([RLU]enzyme - [RLU]cpd)/([RLU]enzyme - [RLU]background) × 100%, and the inhibitory activity IC50 value of the compound on the enzyme activity was calculated using a four-parameter Logistic Model method. In the following equation, x represents the logarithmic form of the concentration of compound, and f (x) represents an effect value (inhibition rate of enzyme activity at the concentration): F(x) = (A + ((B - A)/(1 + ((C/x)^D)))). A. B, C, and D are four parameters. IC50 values were further calculated as the concentration of compound required for 50% inhibition of enzyme activity in the best-fit curve using Xlfit, and the KIF18A inhibitory activity of the compounds of the present disclosure is shown in Table 1. Table 1. KIF 18A inhibitory activity of compounds of the present disclosure

[2] = tested on: OVCAR3 cells; assay: Inhibition of proliferation of OVCAR-3 cells (Cell-Titer Glo); details: read-out: OVCAR3 proliferation inhibition IC50, numeric value, 3 days incubation
Description: Cells and materials: The human ovarian cancer cell line OVCAR3 was purchased from ATCC (Cat. No. HTB-161™), RPMI 1640 medium (Gibco#A1049101), penicillin-streptomycin (Gibco#15140122), and 0.25% Trypsin-EDTA (Gibco#25200056) were purchased from Gibco (U.S.), bovine insulin (Yeasen#40107ES60) was purchased from Yeasen, 384-well plates (Corning#CLS3765) were purchased from Corning (U.S.), Cell-Titer Glo reagent (Promega#G7568) was purchased from Promega (U.S.), and Echo was purchased from PerkinElmer.
Cell culture: OVCAR3 cells were cultured in RPMI 1640 complete medium (RPMI 1640 medium containing 20% fetal bovine serum, 10 µg/mL bovine insulin, and 1% penicillin-streptomycin) in an incubator (37 °C, 5% CO2), and the cells were able to be used in experiments when in the logarithmic growth phase.
Cell proliferation activity test: The Cell-Titer Glo reagent was used to test the compound for inhibition of proliferation of the OVCAR3 cell strain. The compound formulated with DMSO and pure DMSO (control) were each added to a 384-well plate using an Echo instrument; the compound was subjected to 3-fold serial dilution starting from 30 µM to obtain 11 concentration points, and the volume of the compound or DMSO added was 100 nL.
OVCAR3 cells were digested and resuspended in RPMI 1640 complete medium, and the suspension was added to the 384-well plate (1000 cells/50 µL/well) to be well mixed with the compound. The mixture was incubated in an incubator (37 °C, 5% CO2) for 3 days. The Cell-Titer Glo reagent was added at 25 µL/well, and the resulting mixture was well mixed by shaking and then incubated for 10 min. The Cell-Titer Glo readings were measured with a Multimode Plate Reader (brand: PerkinElmer; model: SIC-PV-018).
A negative control group (Bottom) was set, and the negative control group was medium wells with 0.2% DMSO added and was defined as 100% proliferation inhibition; the positive control group (Top) was OVCAR3 cell wells with 0.2% DMSO added.
The percent proliferation inhibition (%Inhibition) was calculated, and the curves were fit using the four-parameter equation, Y = Bottom + (Top - Bottom)/(1 + (IC50/X)^HillSlope), to obtain the proliferation inhibition IC50 of the compound. Percent inhibition: %Inhibition = (1 - (Signal - Bottom)/(Top - Bottom)) × 100%. • Signal: Cell-Titer Glo reading of wells with compound added; • Bottom: Cell-Titer Glo reading of negative control wells; • Top: Cell-Titer Glo reading of positive control wells.

IC50 [1] [nM] | IC50 [2] [nM] | Compound
51.4 | – | Cc1cc(NC(=O)c2ccc(NS(=O)(=O)CCO)cc2N2CCC3(CC2)CC3)n2nc3c(c2n1)CCCCC3
44.7 | 70.4 | O=C(Nc1ccc(Cl)c2c3c(nn12)CCCCC3)c1ccc(NS(=O)(=O)CCO)cc1N1CCC2(CC1)CC2
33.7 | – | O=C(Nc1ccnc2c3c(nn12)CCC(F)(F)CC3)c1ccc(NS(=O)(=O)CCO)cc1N1CCC2(CC1)CC2
122 | – | CS(=O)(=O)Nc1ccc(C(=O)Nc2cccc3c4c(nn23)CCC(F)(F)CC4)c(N2CCC3(CC2)CC3)c1
19.1 | 88.1 | O=C(Nc1cccc2c3c(nn12)CCCC(F)(F)C3)c1ccc(NS(=O)(=O)CCO)cc1N1CCC2(CC1)CC2
22.1 | – | CCC1Cc2nc3c(NC(=O)c4ccc(NS(=O)(=O)CCO)cc4N4CCC5(CC4)CC5)cccc3n2C1 (stereo not shown)
25.5 | – | CCC1CCn2c1nc1c(NC(=O)c3ccc(NS(=O)(=O)CCO)cc3N3CCC4(CC3)CC4)cccc12 (stereo not shown)
110 | – | O=C(Nc1cccc2c1c(F)c1n2CCCCC1)c1ccc(NS(=O)(=O)CCO)cc1N1CCC2(CC1)CC2
74.8 | – | O=C(Nc1cccc2c3c(nn12)CCC(O)CC3)c1ccc(NS(=O)(=O)CCO)cc1N1CCC2(CC1)CC2 (stereo not shown)
52.3 | 73 | O=C(Nc1cccc2c1nc1n2CC2CCC12)c1ccc(NS(=O)(=O)CCO)cc1N1CCC2(CC1)CC2 (stereo not shown)
14.6 | 19.8 | O=C(Nc1cccc2c3c(nn12)CCC(F)(F)CC3)c1ccc(NS(=O)(=O)CCO)cc1N1CCC2(CC1)CC2
48.9 | – | Cc1cc(NC(=O)c2ccc(NS(=O)(=O)CCO)cc2N2CCC3(CC2)CC3)n2nc3c(c2n1)CCC(F)(F)CC3
182 | – | CCS(=O)(=O)Nc1ccc(C(=O)Nc2cccc3c4c(nn23)CCC(F)(F)CC4)c(N2CCC3(CC2)CC3)c1
86 | – | O=C(Nc1cc(O)cc2c3c(nn12)CCCCC3)c1ccc(NS(=O)(=O)CCO)cc1N1CCC2(CC1)CC2
29.5 | – | O=C(Nc1ccc(O)c2c3c(nn12)CCCCC3)c1ccc(NS(=O)(=O)CCO)cc1N1CCC2(CC1)CC2
286 | – | C=CS(=O)(=O)Nc1ccc(C(=O)Nc2cccc3c4c(nn23)CCC(F)(F)CC4)c(N2CCC3(CC2)CC3)c1
125 | – | N#Cc1ccc(NC(=O)c2ccc(NS(=O)(=O)CCO)cc2N2CCC3(CC2)CC3)n2nc3c(c12)CCC(F)(F)CC3
42.3 | – | O=C(Nc1ccnc2c3c(nn12)CCCCC3)c1ccc(NS(=O)(=O)CCO)cc1N1CCC2(CC1)CC2
124 | – | O=C(Nc1ccc(C(F)(F)F)c2c3c(nn12)CCCCC3)c1ccc(NS(=O)(=O)CCO)cc1N1CCC2(CC1)CC2
81.1 | – | N#Cc1ccc(NC(=O)c2ccc(NS(=O)(=O)CCO)cc2N2CCC3(CC2)CC3)n2nc3c(c12)CCCCC3
21.4 | 6.62 | COc1ccc(NC(=O)c2ccc(NS(=O)(=O)CCO)cc2N2CCC3(CC2)CC3)c2nc3n(c12)CC1C3C1(F)F (stereo not shown)
21.3 | 29.1 | CC12c3nc4c(NC(=O)c5ccc(NS(=O)(=O)CCO)cc5N5CCC6(CC5)CC6)cccc4n3CC1C2(F)F (stereo not shown)
